# The list is not random: actives were taken first. Their share in the collection is about 1.5%.
# Pemphigus Ab inh = inhibitors of pemphigus antibody binding to human desmoglein-3 | P32926 | DSG3-coupled beads, scFv-anti-DSG3-GFP binding, flow cytometry; hits give low values | binding (percent of control), % at 10 µM | 310,000 compounds, 0.48% hits;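 active means binding more than 3 SD below its plate's average and above zero; inconclusive means below that plate limit but binding exactly zero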;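 further: hits lower antibody fragment binding to DSG3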
# PABP FP inh = blocks human PABP binding to poly(A) RNA; P11940; fluorescence polarization; calls only at 35 µM; 290,000 compounds, 1% hits;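 further: calls also rest on retests at 20 µM and on dose response follow-up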
# eIF4H FP inh = inhibitors of RNA binding by human eIF4H; eIF4H fluorescence polarization binding assay; Q15056; AID 2012; inhibition, % at 35 µM; 290,000 compounds, 0.94% hits;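 further: calls also rest on retests at 20 µM and on dose response follow-up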
# PABP1 MLLE inh = inhibitors of microRNA-mediated deadenylation, human PABP1 MLLE binding | GST-MLLE / FITC-PAM2 fluorescence polarization | 360,000 compounds, 0.36% hits | inhibition, % at 20 µM | AID 588489; in the data active means inhibition above about 35%, passing the limit was not always enough;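 further: plate controls were DMSO wells with GST-MLLE for no effect and wells lacking GST-MLLE protein for full effect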
# UUG fidelity = yeast start codon fidelity modulation. S. cerevisiae UUG-firefly luciferase reporter, luminescence/redox ratio. activity score, % at 18.7 µM. 0.13% of 350,000 active;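 active = replicate mean at a twofold rise or more, about +100% in these data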;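 also: firefly luciferase made from a UUG start codon reports start codon fidelity; reporter light over untreated wells divided by growth signal over untreated wells; some hits fall short of that in this replicate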
# Numbers without * were called inactive; i = inactive; ? = inconclusive; . = not tested or not shown; + = active, no number. Unless noted, how the calls were made is not given here.
SMILES,Pemphigus Ab inh,PABP FP inh,eIF4H FP inh,PABP1 MLLE inh,UUG fidelity
CCC(C)(C)n1nnnc1C(C(C)C)N(Cc1cccnc1)Cc1ccco1 (configuration not stated),.,i,-4,-10,-17
C[C@H]1CN([C@@H](C)CO)C(=O)Cc2cc(NS(=O)(=O)c3ccc(Cl)cc3)ccc2O[C@@H]1CN(C)S(C)(=O)=O,.,.,.,.,-2
CCC(C)C(=O)N1c2ccccc2C(=C2SC(C(=O)OC)=C(C(=O)OC)S2)C(=S)C1(C)C (configuration not stated),67,i,-8,46*,-9
COc1ccc(C(=O)Nc2ccc(NC(=O)c3cnccn3)cn2)cc1,72*,i,1,-5,-6
COc1ccc(C(=O)Nc2ccc(NC(=O)C3CC3)cn2)cc1,105,i,-9,5,4
O=C1NC(=O)c2cc(Br)cc3cccc1c23,93,i,9,2,.
Cc1ccc(NS(=O)(=O)c2cc3c4c(cccc4c2)C(=O)NC3=O)cc1C,106,+,57,0,5
CN(C)C(=O)c1cccc(-c2ccc3c(c2)[C@H]2[C@H](CCN2Cc2nccs2)[C@@H](CO)N3)c1,.,.,.,.,-1
CCCCCCCCOC(=O)CCc1c(C)[nH]c(=S)[nH]c1=O,11*,i,-3,-13,-24
CCCCCCOC(=O)CCc1c(C)nc(N)[nH]c1=O,.,i,-11,2,-3
CCOC(=O)c1c(CSc2ccc(C)cc2)n(C)c2cc(Br)c(O)c(CN(C)C)c12,105,i,18,100*,6
C=CCO/N=C(/C)c1ccc(Oc2cnccn2)cc1,85,+,7.9*,2,.
C[C@@H]1CN([C@@H](C)CO)C(=O)c2cc(C#CC3CCCCC3)cnc2O[C@@H]1CN(C)S(=O)(=O)c1ccccc1,.,.,.,.,2
Cc1ccc(NCC(=O)c2ccc([N+](=O)[O-])cc2)cc1,104,i,-19,1,.
Cc1ccc(C(=O)CNc2cccc([N+](=O)[O-])c2)cc1,105,i,52,41*,5
O=C(c1ccc(Cl)cc1)[C@@H]1[C@@H]2C(=O)N(c3ccccc3)C(=O)[C@@H]2C2c3ccccc3C=NN21 (some centres not stated),78*,i,-2,-4,-4
N#C[C@H]1N[C@H](CO)[C@@H]1c1ccc(C#Cc2cccnc2)cc1,.,.,.,.,-14
COCCCN1CN(S(=O)(=O)c2ccc(Cl)cc2)c2nc3ccccc3nc21,105,+,50*,16,-8
c1ccn2cc(-c3ccc4c(c3)OCO4)cc2c1,109,i,64*,-10,.
CNC(=S)NN=C(C)c1ccc(OC)cc1O,.,.,.,43*,.
COCC(=O)NC[C@H]1[C@@H](c2ccc(C3=CCCC3)cc2)[C@H](CO)N1C(=O)C1CC1,.,.,.,.,3
Cc1noc(C)c1S(=O)(=O)Nc1ccc2c(c1)C(=O)N([C@@H](C)CO)C[C@@H](C)[C@H](CN(C)S(C)(=O)=O)OCCCC[C@@H](C)O2,.,.,.,.,6
COCC(=O)Nc1ccc2c(c1)C(=O)N(C)[C@@H]1CC[C@H](CC(=O)Nc3ccccc3)O[C@H]1CO2,.,.,.,.,-6
CC(C)(C)C1CCC(=NNc2nc3ccccc3[nH]2)CC1 (configuration not stated),105,+,13,-18,.
c1ccc(CN2CCC(=NNc3nc4ccccc4[nH]3)CC2)cc1,105,i,26,-31,-23
S=c1[nH]nc(-c2ccccn2)n1/N=C/c1ccc(Br)s1,65*,i,7,-35,.
C/C(=N\NC(=O)CSc1nc(C)cc(C)n1)c1cccc([N+](=O)[O-])c1,66*,i,-2,-5,.
Cc1ccc(S(=O)(=O)N(C)C[C@@H]2Oc3ccc(NS(=O)(=O)c4cccs4)cc3C(=O)N([C@H](C)CO)C[C@@H]2C)cc1,.,.,.,.,-1
O=C(NCC(=O)N1CCN(S(=O)(=O)/C=C/c2ccccc2)CC1)c1ccc(Cl)cc1,73*,i,-12,3,-6
O=C(NCC(=O)N1CCN(S(=O)(=O)/C=C/c2ccccc2)CC1)c1ccccc1F,91,i,-10,-2,.

# Molecules from the list above with an aryl methoxy group:
SMILES,Pemphigus Ab inh,PABP FP inh,eIF4H FP inh,PABP1 MLLE inh,UUG fidelity
COc1ccc(C(=O)Nc2ccc(NC(=O)c3cnccn3)cn2)cc1,72*,i,1,-5,-6
COc1ccc(C(=O)Nc2ccc(NC(=O)C3CC3)cn2)cc1,105,i,-9,5,4
CNC(=S)NN=C(C)c1ccc(OC)cc1O,.,.,.,43*,.

# The listing picks up, starting 2 compounds before the break.
SMILES,Pemphigus Ab inh,PABP FP inh,eIF4H FP inh,PABP1 MLLE inh,UUG fidelity
O=C(NCC(=O)N1CCN(S(=O)(=O)/C=C/c2ccccc2)CC1)c1ccc(Cl)cc1,73*,i,-12,3,-6
O=C(NCC(=O)N1CCN(S(=O)(=O)/C=C/c2ccccc2)CC1)c1ccccc1F,91,i,-10,-2,.
COCC#Cc1cnc2c(c1)C(=O)N([C@@H](C)CO)C[C@H](C)[C@@H](CN(C)C(=O)c1cnccn1)O2,.,.,.,.,-21
COc1ccc(-c2nn(-c3ccccc3)cc2/C=N/NC(=O)c2cccc(S(=O)(=O)Nc3ccccc3OC)c2)cc1,83*,i,3,-1,.
O=c1c(CO)cc(CO)cc(CO)c1O,84,i,36,1,.
O=C1C=CC(=O)c2c(O)c(CO)c(CO)c(O)c21,25*,.,.,140,.
COc1ccc(NC(=O)Nc2ccc3c(c2)C(=O)N([C@@H](C)CO)C[C@@H](C)[C@H](CN(C)C(=O)NC2CCCCC2)O3)cc1,.,.,.,.,1
CCOC(=O)c1c2ccc(OCC(=O)NN)cc2n2ccccc12,103,i,10,58*,.
CCOC(=O)c1c2ccc(OCC(=O)N/N=C/c3ccc(C)cc3)cc2n2ccccc12,94,i,7,11,.
Oc1c(Br)cc(Br)c(/C=N/n2c(-c3ccccc3)n[nH]c2=S)c1Br,121,+,44*,14,-21
CNC(=O)C[C@H]1CC[C@@H]2[C@H](COc3ccc(NC(=O)c4ccc(F)c(F)c4)cc3C(=O)N2C)O1,.,.,.,.,5
O=C1N(Cc2ccccc2)Cc2ccccc2[C@H]2OC(c3ccc(OCCCO)cc3)=N[C@@]12CCS(=O)(=O)c1ccccc1,.,.,.,.,-3
CC(Oc1ccc2ccc(=O)oc2c1)C(=O)NC(Cc1c[nH]c2ccc(O)cc12)C(=O)O (configuration not stated),101,i,87*,-14,-13
COc1ccc(-c2cc(=O)oc3cc(OC(C)C(=O)NC(Cc4c[nH]c5ccc(O)cc45)C(=O)O)ccc23)cc1 (configuration not stated),102,i,9,2,-2
Cc1c(OC(C)C(=O)NC(Cc2c[nH]c3ccc(O)cc23)C(=O)O)ccc2c1oc(=O)c1ccccc12 (configuration not stated),.,+,81*,7,-5
Cc1c(C)c2ccc(OC(C)C(=O)N[C@@H](Cc3c[nH]c4ccccc34)C(=O)O)c(C)c2oc1=O (some centres not stated),106,i,-5,0,-3
CCc1ccc(CNC(=O)CCC(=O)n2ncc3cc(C)ccc32)cc1,77*,i,-4,13,-16
COc1cc(OC)cc(N(C(=O)C2COc3ccccc3O2)C(C(=O)NC2CCCCC2)c2ccc(O)cc2)c1 (configuration not stated),76*,i,5,5,-9
O=C1OC2(CCCC2)OC(=O)C1=Cc1c[nH]c2ccccc12,102,+,?,-15,.
C[C@@H]1CCCCO[C@H](CN(C)C(=O)Nc2ccc(F)cc2)[C@H](C)CN([C@H](C)CO)C(=O)c2cc(NS(=O)(=O)c3ccc(F)cc3)ccc2O1,.,.,.,.,0
